Data set [1] relates to mitochondrial function of the heart. Briefly: PET measurement of side effects on the heart after acetaminophen (APAP) administration. The conditions noted are these: 24 hours after administration, PET with [^18F]BCPP-BF, vs solvent control, FIG. 2(A). As for the experimental part: (§1) The rats were anesthetized with isoflurane and fixed in a gantry of an animal PET camera (SHR-38000, manufactured by Hamamatsu Photonics K.K.). After 15-minute transmission measurement was carried out for absorption correction, about 20 MBq/0.5 mL of [^18F]BCPP-BF was administered to the rats via the tail vein and 60-minute emission measurement was carried out. A region of interest was set on the heart, and the amount of [^18F]BCPP-BF accumulated in the region of interest was calculated. Subsequently, the calculated accumulation amount was normalized by the amount of radioactivity administered and the body weight of each individual and defined as an amount of [^18F]BCPP-BF accumulated in the heart (amount of radioactivity accumulated (SUV)). As a control, the amount of [^18F]FDG accumulated in the heart (amount of radioactivity accumulated (SUV)) was measured in the same manner except that [^18F]FDG was used instead of [^18F]BCPP-BF.
100 mg/kg or 300 mg/kg of APAP was administered intravenously via the tail vein of the rats. As a control, rats to which only the solvent was similarly administered intravenously were prepared. The rats were subjected to PET measurement 24 hours after administration of APAP or the solvent. The procedure for PET measurement is the same as in Test Example 2. […]

The conditions of data set [2]: cited from earlier work.
The subject of data set [3] is hearts of rats. The conditions noted are these: cited from earlier work.
The test system of data set [4] is mitochondrial function. Description: PET measurement of side effects on the heart after doxorubicin (DOX) administration. The conditions noted are these: PET with [^18F]BCPP-BF, vs solvent control, FIG. 3. How it is done: as §1
5 mg/kg or 20 mg/kg of DOX was administered intravenously via the tail vein of the rats. As a control, rats to which only the solvent was similarly administered intravenously were prepared. The rats were subjected to PET measurement 0.5 hours, 24 hours, and 96 hours after administration of DOX or the solvent. The procedure for PET measurement is the same as in Test Example 2.

For data set [5] the following is noted: cited from earlier work. The source holds these as a separate data set.
The conditions of data set [6]: 3 weeks after repeated intravenous administration of 3 mg/kg of DOX every week; cited from earlier work.

Read-outs that look alike come from different tables or passages of the source.

Take `CC(=O)Nc1ccc(O)cc1`: the “effect on the mitochondrial function of the heart” value in data set [1] (100 mg/kg APAP intravenous) and in data set [1] (300 mg/kg APAP intravenous) was “significant effect” each time. Also, the blood pressure entry in data set [2] (2 minutes after intravenous administration of 125 mg/kg of APAP) is on record as “transient significant increase”; in data set [2] (after 3 minutes, intravenous 125 mg/kg of APAP, vs solvent administration group), “no significant difference”. In addition, the heart rate result in data set [2] (intravenous 125 mg/kg of APAP) is given as “no effect was observed”. Also, in data set [3] (24 hours after oral administration of 1,000 mg/kg of APAP), the “histological necrotic changes in the myocardium” value is given as “not observed”. The “expression of inflammation-related genes in the hearts” value in data set [3] (hearts excised 24 hours after oral administration of 1,000 mg/kg of APAP) is recorded as “increase”.

As for `COc1cccc2c1C(=O)c1c(O)c3c(c(O)c1C2=O)C[C@@](O)(C(=O)CO)C[C@@H]3O[C@H]1C[C@H](N)[C@H](O)[C@H](C)O1`, the “mitochondrial function (heart)” value in data set [4] (high-dose (20 mg/kg) DOX intravenous, starting 24 hours after administration) was “significant decrease in mitochondrial function”; in data set [4] (low-dose (5 mg/kg) DOX intravenous, 96 hours after administration) it was “significant decrease in mitochondrial function”. For the same molecule, the “abnormalities in cardiac function by CK and troponin I (TnI)” value in data set [5] (24 hours after intravenous administration of 20 mg/kg of DOX) was “could not be detected”. Besides, in data set [5] (24 hours after intravenous administration of DOX 40 mg/kg), the “abnormalities in cardiac function by CK, TnI, LDH and FABP3” value is on record as “could not be detected”. Also, in data set [6], the “changes in cardiac function (heart rate, cardiac output), TnI, LDH and myocardial metabolism (hyperpolarized [1-^13C]pyruvate and [2-^13C]pyruvate)” value is listed as “could not be detected”.

The values are drawn from patent publication EP4847049A1, “DIAGNOSTIC AGENT FOR CARDIAC FUNCTION” (dated 2026).
